# Values quoted from earlier work in patent publication US8980904B2, “Heterocyclic substituted pyrimidine compound” (Xuanzhu Pharma Co., Ltd., priority 2011, dated 2015).
# Sequences of proteins named here, by UniProt entry; tags and fusion partners are left off. A change or cut given only in a name is not applied to a line headed by its entry.
# UniProt Q9HCR9: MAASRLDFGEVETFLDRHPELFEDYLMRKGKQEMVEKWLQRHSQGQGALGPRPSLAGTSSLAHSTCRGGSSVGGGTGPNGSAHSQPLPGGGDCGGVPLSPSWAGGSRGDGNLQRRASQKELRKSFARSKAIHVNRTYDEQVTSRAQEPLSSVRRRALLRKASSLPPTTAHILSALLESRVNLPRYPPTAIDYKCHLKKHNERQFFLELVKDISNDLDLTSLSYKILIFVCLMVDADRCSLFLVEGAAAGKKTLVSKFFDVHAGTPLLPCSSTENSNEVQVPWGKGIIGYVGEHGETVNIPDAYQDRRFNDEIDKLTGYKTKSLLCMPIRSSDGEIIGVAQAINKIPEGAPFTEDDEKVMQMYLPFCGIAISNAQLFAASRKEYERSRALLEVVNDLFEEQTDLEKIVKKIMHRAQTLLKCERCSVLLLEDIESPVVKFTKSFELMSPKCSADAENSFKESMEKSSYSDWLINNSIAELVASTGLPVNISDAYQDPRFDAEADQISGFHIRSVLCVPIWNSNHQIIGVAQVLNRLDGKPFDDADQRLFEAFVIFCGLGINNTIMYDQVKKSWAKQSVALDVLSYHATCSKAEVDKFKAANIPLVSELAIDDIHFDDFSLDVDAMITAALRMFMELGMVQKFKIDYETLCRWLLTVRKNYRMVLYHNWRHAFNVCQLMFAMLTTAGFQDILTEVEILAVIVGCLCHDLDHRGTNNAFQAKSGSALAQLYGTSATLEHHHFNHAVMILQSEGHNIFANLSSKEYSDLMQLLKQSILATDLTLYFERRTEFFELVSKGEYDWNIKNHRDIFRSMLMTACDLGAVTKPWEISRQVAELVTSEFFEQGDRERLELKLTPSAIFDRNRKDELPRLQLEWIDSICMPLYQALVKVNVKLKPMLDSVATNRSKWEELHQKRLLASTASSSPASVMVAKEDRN
# Molecular target: PDE-11 (Homo sapiens (Human), UniProt Q9HCR9)
# Settings: background art; cited from earlier work
smiles,measurement,value
CN1CC(=O)N2[C@H](c3ccc4c(c3)OCO4)c3[nH]c4ccccc4c3C[C@@H]2C1=O [Tadalafil],inhibition of PDE-11,inhibition effects on PDE-11 to some extent
